{"sequences": {"note": "The chains behind the UniProt entries cited, without tags or fusion partners.", "UniProt Q01959, whole entry": "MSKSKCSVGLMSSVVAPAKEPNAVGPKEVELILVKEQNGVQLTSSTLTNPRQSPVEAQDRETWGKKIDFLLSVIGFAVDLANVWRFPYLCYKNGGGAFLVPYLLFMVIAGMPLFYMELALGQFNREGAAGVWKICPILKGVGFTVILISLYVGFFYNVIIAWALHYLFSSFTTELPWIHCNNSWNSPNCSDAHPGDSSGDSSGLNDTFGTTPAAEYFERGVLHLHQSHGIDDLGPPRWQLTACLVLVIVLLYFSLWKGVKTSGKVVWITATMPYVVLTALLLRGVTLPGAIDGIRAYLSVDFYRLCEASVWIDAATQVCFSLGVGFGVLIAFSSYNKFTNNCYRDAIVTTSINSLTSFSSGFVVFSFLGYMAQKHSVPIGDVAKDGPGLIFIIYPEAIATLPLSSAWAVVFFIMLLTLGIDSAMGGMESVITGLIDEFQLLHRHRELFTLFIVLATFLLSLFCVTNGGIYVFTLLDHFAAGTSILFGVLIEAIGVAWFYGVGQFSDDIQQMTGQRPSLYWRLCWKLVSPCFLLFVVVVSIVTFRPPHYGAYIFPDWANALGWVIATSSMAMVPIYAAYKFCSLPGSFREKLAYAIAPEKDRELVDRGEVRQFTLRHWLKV"}, "source": "paper PMC5741089", "about": "(Current protocols in pharmacology, 2017)", "target": "hDAT (Homo sapiens, UniProt Q01959)", "settings": "10 min, 37°C, pH 7.4; cells preloaded with 25 nM [3H]-DA", "data": [{"smiles": "CC(N)Cc1ccccc1", "note": "(stereo not shown) [amphetamine]", "values": [{"measurement": "% efflux at 20 μM", "result": 57, "unit": "%"}]}]}
